{"source": "patent US7671027B2", "about": "“Use of GnRH agonists to support the luteal phase during infertility treatment” (PregLem S.A., priority 2002, dated 2010)", "key": {"[1]": {"tested_on": "patients suffering from unexplained infertility, mild to moderate endometrioisis or partner sperm alteration", "assay": "Dose finding study: luteal phase duration and pregnancy outcome after ovarian stimulation and IUI", "type": "in vivo", "description": "(§1) Patients suffering from unexplained infertility, or from infertility resulting from mild to moderate endometrioisis, or an infertility resulting from a mild or moderate alteration of their partner sperm, and whom have not conceived despite regular sexual intercourses during a period of one or two years, usually undergo medical assistance. The most often used treatment is ovarian stimulation coupled to an IUI (Hughes G. H. 1997, The effectiveness of ovulation induction and intra-uterine insemination in the treatment of persistent infertility: a meta-analysis. Hum Reprod. 12: 1865-1872).\n(§2) A prospective, randomised, parallel groups dose finding study was conducted in this patient population. After obtaining written informed consent, patient eligibility was confirmed and on day 1 to 5 of their next menstruation, the patient took orally for 5 days, 25 mg/day of exemestane, an aromatase inhibitor.\n(§3) The ovarian response to treatment was followed on a regular basis using transvaginal ultrasound and by measuring serum oestradiol levels, Typically, a first assessment was performed on day 6 of the stimulation. The number and the size of each follicle was recorded. […] For that purpose the dose of buserelin administered intra-nasally, was 200 μg.\n(§4) Between 12 and 48 hours after triggering ovulation, the patient's partner provided a sperm sample, after 2 to 5 days of abstinence. Motile sperm cells were separated from seminal fluid, dead sperm cells, leucocytes, and cellular debris using a suitable method such as a “swim-up” or a Percol gradient. On that same day, the motile sperm cell suspension was used to perform an intra-uterine insemination with a catheter inserted into the uterine cavity via the cervix. The procedure may be repeated on the next day.\n(§5) From that day and for a period of 14 days, the patient received either no additional treatment (Patients in the hCG control group) or buserelin 100 μg every day IN, or every two days or every three days. These buserelin administrations were self-administered by the patient."}, "[2]": {"tested_on": "patients who did not conceive", "assay": "Dose finding study: luteal phase serum oestradiol levels", "type": "in vivo, human", "description": "as §1, §2, §3, §4, §5"}, "[3]": {"tested_on": "patients who did not conceive", "assay": "Dose finding study: luteal phase serum progesterone levels", "type": "in vivo, human", "conditions": "hCG 5000 IU trigger, no luteal treatment", "description": "as §1, §2, §3, §4, §5"}, "[4]": {"tested_on": "patients in ART treatments", "conditions": "hCG luteal support; CI: 1.56-4.90; p<0.05; cited from earlier work"}}}
{"compound": "CCNC(=O)[C@@H]1CCCN1C(=O)[C@H](CCCNC(=N)N)NC(=O)[C@H](CC(C)C)NC(=O)[C@@H](COC(C)(C)C)NC(=O)[C@H](Cc1ccc(O)cc1)NC(=O)[C@H](CO)NC(=O)[C@H](Cc1c[nH]c2ccccc12)NC(=O)[C@H](Cc1cnc[nH]1)NC(=O)[C@@H]1CCC(=O)N1", "note": "[Buserelin, <Glu^1-His^2-Trp^3-Ser^4-Tyr^5-D-Ser(t-But)^6-Leu^7-Arg^8-Pro^9-EA (SEQ ID NO: 2)]", "values": [{"measurement": "Luteal phase duration (mean ± SD)", "setting": "[1]; buserelin 200 μg IN trigger, then 100 μg/2 days IN for 14 days, n=6", "value": "14.8 ± 3.3", "unit": "days"}, {"measurement": "Luteal phase duration (mean ± SD)", "setting": "[1]; buserelin 200 μg IN trigger, then 100 μg/3 days IN for 14 days, n=5", "value": "14.8 ± 1.7", "unit": "days"}, {"measurement": "Luteal phase serum oestradiol level (mean ± SD)", "setting": "[2]; Day 1, buserelin 100 μg/day IN", "value": "213 ± 133", "unit": "pg/mL"}]}
{"compound": "hCG: human chorionic gonadotropin, a naturally occurring agonist of LH; control group, 5000 IU injection", "values": [{"measurement": "Luteal phase duration (mean ± SD)", "setting": "[1]; hCG 5000 IU one injection to trigger ovulation, no additional luteal treatment (control group), n=5", "value": "14.8 ± 1.1", "unit": "days"}, {"measurement": "Positive pregnancy test", "setting": "[1]; hCG 5000 IU trigger, no luteal treatment, patients positive/total, day 14 of luteal phase", "value": "0/5"}, {"measurement": "Clinical pregnancy", "setting": "[1]; hCG 5000 IU trigger, no luteal treatment, patients/total", "value": "0/5"}, {"measurement": "Luteal phase serum progesterone level (mean ± SD)", "setting": "[3]; Day 0", "value": "0.5 ± 0.3", "unit": "ng/mL"}, {"measurement": "Luteal phase serum progesterone level (mean ± SD)", "setting": "[3]; Day 1", "value": "1.1 ± 0.6", "unit": "ng/mL"}, {"measurement": "Luteal phase serum progesterone level (mean ± SD)", "setting": "[3]; Day 4", "value": "6.0 ± 4.7", "unit": "ng/mL"}, {"measurement": "Luteal phase serum progesterone level (mean ± SD)", "setting": "[3]; Day 7", "value": "12.3 ± 5.4", "unit": "ng/mL"}, {"measurement": "Luteal phase serum progesterone level (mean ± SD)", "setting": "[3]; Day 9", "value": "13.1 ± 3.5", "unit": "ng/mL"}, {"measurement": "Luteal phase serum progesterone level (mean ± SD)", "setting": "[3]; Day 11", "value": "9.7 ± 2.8", "unit": "ng/mL"}, {"measurement": "Luteal phase serum progesterone level (mean ± SD)", "setting": "[3]; Day 14", "value": "3.3 ± 1.7", "unit": "ng/mL"}, {"measurement": "Luteal phase serum oestradiol level (mean ± SD)", "setting": "[2]; Day 0, hCG 5000 IU trigger, no luteal treatment", "value": "227 ± 74", "unit": "pg/mL"}, {"measurement": "Luteal phase serum oestradiol level (mean ± SD)", "setting": "[2]; Day 1, hCG 5000 IU trigger, no luteal treatment", "value": "189 ± 65", "unit": "pg/mL"}, {"measurement": "Luteal phase serum oestradiol level (mean ± SD)", "setting": "[2]; Day 4, hCG 5000 IU trigger, no luteal treatment", "value": "114 ± 35", "unit": "pg/mL"}, {"measurement": "Luteal phase serum oestradiol level (mean ± SD)", "setting": "[2]; Day 7, hCG 5000 IU trigger, no luteal treatment", "value": "166 ± 37", "unit": "pg/mL"}, {"measurement": "Luteal phase serum oestradiol level (mean ± SD)", "setting": "[2]; Day 9, hCG 5000 IU trigger, no luteal treatment", "value": "213 ± 41", "unit": "pg/mL"}, {"measurement": "Luteal phase serum oestradiol level (mean ± SD)", "setting": "[2]; Day 11, hCG 5000 IU trigger, no luteal treatment", "value": "190 ± 59", "unit": "pg/mL"}, {"measurement": "Luteal phase serum oestradiol level (mean ± SD)", "setting": "[2]; Day 14, hCG 5000 IU trigger, no luteal treatment", "value": "100 ± 52", "unit": "pg/mL"}, {"measurement": "odds to obtain a pregnancy compared to no luteal support", "setting": "[4]", "value": 2.72}]}
